In brackets after ≈: the same amount, converted by molar mass.
Biological target: mouse semaphorin 3A (Sema3A) (Mus musculus, UniProt O08665)
Assay: Suppressing action on the growth cone collapse activity of Sema3A in chick dorsal root ganglion culture
Type: cell-based
Details: E7 chick embryo dorsal root ganglions; compound added 1 hour before 3 units/ml mouse Sema3A; growth cone collapse rate after another 1 hour
From the text: The growth cone collapse activity of semaphorin described above means an activity to make growth cones disappear. This activity is observed after performing the following steps: cultivating nerve cells (generally tissue explants of ganglions) for a given period of time in vitro until the extended neurites as well as the growth cones at the edge of said neurites can be observed; and then adding thereto a given concentration (e.g. about 3 unit/ml; 1 unit/ml is defined as a semaphorin concentration in which 50% of the growth cones are collapsed) of semaphorin and cultivating for another given period of time (e.g. one hour). In order to get the extended neurites and the growth cones at the edge of said neurites ready for the observation, the nerve cells are generally cultivated for 10 to 20 hours in vitro, which duration can be altered according to a nerve variant and culture conditions. […]
A 96-well plate (Sumitomo Bakelite Co., Ltd.) pre-coated with polylysine was further coated with laminine (20 μg/ml of laminine, for 1 hour at room temperature). […] The cultures were then left for 15 minutes at room temperature so that the tissue sections were fixed, and collapse rates of the growth cones were microscopically determined. […]

Protein sequences, listed by entry. Tags and fused reporters are not part of them. Residues count along the entry.
UniProt O08665, 21-772 limits assumed: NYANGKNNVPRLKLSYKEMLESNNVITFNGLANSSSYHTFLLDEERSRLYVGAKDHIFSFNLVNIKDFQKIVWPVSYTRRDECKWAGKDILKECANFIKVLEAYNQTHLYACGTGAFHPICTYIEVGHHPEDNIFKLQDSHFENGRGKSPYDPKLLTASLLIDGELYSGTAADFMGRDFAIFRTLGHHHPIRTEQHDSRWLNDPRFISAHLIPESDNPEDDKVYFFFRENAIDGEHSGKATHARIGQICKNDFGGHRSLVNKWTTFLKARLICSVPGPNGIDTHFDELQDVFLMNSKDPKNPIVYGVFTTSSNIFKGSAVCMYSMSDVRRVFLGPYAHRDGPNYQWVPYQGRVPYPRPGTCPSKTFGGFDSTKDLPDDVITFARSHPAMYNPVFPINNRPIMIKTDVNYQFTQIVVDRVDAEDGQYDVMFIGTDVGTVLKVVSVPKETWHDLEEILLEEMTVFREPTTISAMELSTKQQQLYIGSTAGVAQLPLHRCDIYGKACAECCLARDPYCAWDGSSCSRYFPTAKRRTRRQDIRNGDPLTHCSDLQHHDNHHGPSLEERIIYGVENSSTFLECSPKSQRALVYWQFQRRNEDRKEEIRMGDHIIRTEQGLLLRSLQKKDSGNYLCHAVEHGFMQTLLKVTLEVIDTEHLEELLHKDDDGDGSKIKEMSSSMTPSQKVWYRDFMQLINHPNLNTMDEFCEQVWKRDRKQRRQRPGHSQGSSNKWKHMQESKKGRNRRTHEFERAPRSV

Cc1cc(=O)c2c(o1)-c1c(c3c(c(O)c1C(=O)O)OC1(C)Cc4oc5cc(O)cc(C(=O)O)c5c(=O)c4C3O1)OC2 (stereo not shown)
IC50: 4 µg/mL (≈ 7.11 µM)

Source: patent publication US7642362B2, “Compounds as semaphorin inhibitors” (Dainippon Sumitomo Pharma Co., Ltd., priority 2002, dated 2010)
